Measured values reported in PubChem BioAssay AID652067 (The Scripps Research Institute Molecular Screening Center, 2013).
The entries are a selection whose mix differs from that of the whole data set. Some tests of the compounds listed are not included; inactive here does not mean inactive elsewhere. Active and inactive are the calls of the source.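 Rule for the calls: active = activation above the mean of all tested compounds plus 3 SD (cut at about 5.5% in these data); inactive = the rest.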

Tested on: DAF-12 nuclear receptor (Haemonchus contortus)
Experiment: hcDAF-12 driven luciferase reporter activation – cell-based, luminescence, HEK293, lit1-tk-luc reporter, primary screen (AID 652067);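 note: 100% = response to 3 µM Δ7-dafachronic acid high control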
Details: HEK293 hcDAF-12 lit1-tk-luc reporter, at 6.8 µM, active compounds read high, 0% DMSO, 100% Δ7-dafachronic acid

| Compound | activation |
| --- | --- |
| CN(C)C1(CNC(=O)c2ccc(Br)cc2)CCCCC1 | inactive: -0.15% |
| COc1cc(C(=O)NCC2(N(C)C)CCCCC2)c([N+](=O)[O-])cc1OC | inactive: 1.14% |
| COc1ccc(Cl)cc1C(=O)NCC1(N(C)C)CCCCC1 | inactive: -1.79% |
| COc1cccc(C(=O)NCC2(N3CCCCC3)CCCCC2)c1 | inactive: 0.4% |
| O=C(NCC1(N2CCCCC2)CCCCC1)c1cccc(Cl)c1 | inactive: -0.07% |
| O=C(OC1CN2CCC1CC2)C(CO)(c1ccccc1)c1ccccc1 (stereo unspecified) | inactive: 0.17% |
| COc1ccc(Br)c(C(=O)NCC2(N3CCCCC3)CCCCC2)c1 | inactive: -0.87% |
| C=C(C)C#CC(O)(C(=O)OC1CCN(C)CC1)c1ccccc1 (stereo unspecified) | inactive: -0.46% |
| CN(C)c1cccc(C(=O)NCC2(N(C)C)CCCCC2)c1 | inactive: -0.69% |
| O=C(OCCN1CCCC1)C(O)(c1ccccc1)c1ccccc1 | inactive: -2.22% |
| CC(C)Oc1ccc(C(=O)NCC2(N(C)C)CCCCC2)cc1 | inactive: -2.66% |
| O=C(NCC1(N2CCCCC2)CCCCC1)c1cc([N+](=O)[O-])ccc1Cl | inactive: -0.27% |
| CN1[C@@H]2CC[C@H]1CC(OC(=O)C(O)(c1ccccc1)c1ccccc1)C2 (stereo partly specified) | inactive: -1.36% |
| CC(C)N1C(=O)CC2(CCN(CCOC(=O)C(O)(c3ccccc3)c3ccccc3)CC2)C1=O | inactive: 0.82% |
| COc1cc(SC)ccc1C(=O)NCC1(N(C)C)CCCCC1 | inactive: -0.38% |
| CCN(CC)CC(C)C(C)OC(=O)C(O)(c1ccccc1)c1ccccc1 (stereo unspecified) | inactive: 0.61% |
| Cc1ccc(C(=O)NCC2(N3CCCCC3)CCCCC2)cc1 | inactive: 3.46% |
| CN(C)C1CCCC1OC(=O)C(O)(c1ccccc1)c1ccccc1 (stereo unspecified) | inactive: -0.93% |
| CN(C)c1ccc(C(=O)NCC2(N(C)C)CCCCC2)cc1 | inactive: -0.32% |
| Cc1ccccc1C(=O)NCC1(N2CCCCC2)CCCCC1 | inactive: -0.65% |
| O=C(NCC1(N2CCCCC2)CCCCC1)c1cc(F)c(F)cc1Cl | inactive: -0.38% |
| C=CCN1CCN(CCOC(=O)C(O)(c2ccccc2)c2ccccc2)CC1 | inactive: -1.75% |
| O=C(NCC1(N2CCCCC2)CCCCC1)c1cccc(Br)c1 | inactive: 2.52% |
| Cc1cc(C(=O)NCC2(N3CCCCC3)CCCCC2)ccc1[N+](=O)[O-] | inactive: -0.91% |
| CCN1CCCC(OC(=O)C2(O)c3ccccc3C=Cc3ccccc32)C1 (stereo unspecified) | inactive: -0.96% |
| COc1ccc(C(=O)NCC2(N(C)C)CCCCC2)cc1 | inactive: -0.77% |
